Assay results as given in patent US20070287680A1, “Combined Active and Passive Targeting of Biologically Active Agents” (University of Utah Research Foundation, priority 2004, published 2007).

Test system: murine adenocarcinoma (1471.1) cells
Experiment: Cytotoxicity after illumination, WST-8 assay
Assay type: cell-based
Settings: 4 hours incubation
Protocol: The IC50 (concentration that inhibits growth by 50%) was determined utilizing a WST-8 assay. Four thousand cells were seeded into 96 well plates and incubated overnight in a humidified atmosphere containing 5% CO2. Varying concentrations of free Mce6 and Cort-Lys-Mce6 or HPMA copolymer-bound Mce6 conjugates (P-GFLG-Cort-Lys-Mce6 and P-GFLG-Mce6) were added to each well. Incubation was carried out for 4 hours in the case of free Mce6 and Cort-Lys-Mce6. The incubation period was 10 hours in the case of the HPMA copolymer-bound Mce6 conjugates. After the period of incubation, the media containing the drug was removed and 100 μL of fresh media was added and the cells were promptly illuminated for 30 min. The light source was three ENH Tungsten halogen lamps (120 V/250 W) placed in parallel, attenuated by three band-pass interference filters (Melles Griot Co., Carlsbad, Calif.). The light energy was approximately 2 mW cm^−2 as determined using a radiometer.
After illumination, the cells were incubated in a humidified atmosphere containing 5% CO2 for 24 hours. The media was replaced with 100 μL fresh media containing 10 μL of WST-8. After two hours incubation, the absorbance was read at 450 nm with background correction at 630 nm. […] Percentage of viable cells was calculated by dividing the mean absorbance of each well by the absorbance of the untreated cells. […]

For “alpha-N-(Cortisol-C17-carbamoyl)-Lysyl-Mesochlorin ethyl amide [Cort-Lys-Mce6]”, the “times more cytotoxic than free Mce6” value was “about 2.5 times”.
